Biological target: T1, NSD2 (Homo sapiens, UniProt O96028)
T1 sequence (O96028 1-1365): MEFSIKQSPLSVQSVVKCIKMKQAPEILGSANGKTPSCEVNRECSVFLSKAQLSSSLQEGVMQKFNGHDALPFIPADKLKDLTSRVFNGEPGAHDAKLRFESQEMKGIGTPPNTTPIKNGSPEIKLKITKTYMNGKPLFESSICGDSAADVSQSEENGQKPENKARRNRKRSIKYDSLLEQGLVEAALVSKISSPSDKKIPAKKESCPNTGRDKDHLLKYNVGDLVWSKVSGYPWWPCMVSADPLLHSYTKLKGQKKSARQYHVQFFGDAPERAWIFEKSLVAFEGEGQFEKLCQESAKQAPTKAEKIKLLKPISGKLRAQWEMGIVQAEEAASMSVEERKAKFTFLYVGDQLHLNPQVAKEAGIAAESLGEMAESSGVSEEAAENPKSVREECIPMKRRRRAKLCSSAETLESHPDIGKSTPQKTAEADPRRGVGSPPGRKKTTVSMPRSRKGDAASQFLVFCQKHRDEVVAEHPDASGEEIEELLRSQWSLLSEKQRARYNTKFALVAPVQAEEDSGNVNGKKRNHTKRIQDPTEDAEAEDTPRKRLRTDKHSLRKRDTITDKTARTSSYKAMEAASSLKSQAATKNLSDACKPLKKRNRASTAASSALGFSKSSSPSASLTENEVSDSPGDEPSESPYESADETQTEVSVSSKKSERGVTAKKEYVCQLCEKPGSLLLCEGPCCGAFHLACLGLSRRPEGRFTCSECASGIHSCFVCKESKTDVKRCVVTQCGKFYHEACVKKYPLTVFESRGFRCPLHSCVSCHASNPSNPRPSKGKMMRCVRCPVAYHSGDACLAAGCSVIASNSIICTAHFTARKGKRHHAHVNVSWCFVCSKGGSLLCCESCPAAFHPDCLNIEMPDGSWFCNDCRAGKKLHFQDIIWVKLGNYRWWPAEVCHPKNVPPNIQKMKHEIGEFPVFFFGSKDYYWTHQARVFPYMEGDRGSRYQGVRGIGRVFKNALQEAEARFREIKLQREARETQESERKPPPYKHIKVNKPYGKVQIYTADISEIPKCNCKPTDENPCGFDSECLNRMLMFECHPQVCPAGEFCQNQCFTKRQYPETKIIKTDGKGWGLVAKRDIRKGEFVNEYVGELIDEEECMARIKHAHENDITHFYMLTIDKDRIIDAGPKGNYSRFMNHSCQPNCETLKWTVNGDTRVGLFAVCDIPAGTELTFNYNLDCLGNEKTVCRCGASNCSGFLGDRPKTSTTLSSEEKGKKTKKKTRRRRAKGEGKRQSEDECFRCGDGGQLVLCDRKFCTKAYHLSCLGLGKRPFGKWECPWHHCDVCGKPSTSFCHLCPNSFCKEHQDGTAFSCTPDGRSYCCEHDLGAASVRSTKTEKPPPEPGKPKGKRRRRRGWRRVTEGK
Experiment: Methyltransferase inhibition, 10-dose IC50 mode
Format: biochemical
Experimental: Verticillin A was tested as an inhibitor against 18 known methyltransferases. […] All reactions were carried out with a S-adenosyl methionine (SAM) concentration of 1 μM.
The methyltransferases tested included the human DNA (cytosine-5) methyltransferases DNMT3a and BNMT3b; the non-SET domain containing H3K79 methyltransferase DOT 1; the H3K27 methyltransferase EZH2; the Mixed-Lineage Leukemia H3K4Me methyltransferases MLL1, MLL2, MLL3, and MLL4; the probable histone-lysine N-methyltransferase NSD2 (also known as Wolf-Hirschhorn syndrome candidate 1 protein, WHSC1); the protein arginine N-methyltransferases PRMT1, PRMT3, PRMT4, PRMT5, and PRMT6; the H3K4 specific methyltransferase SET7; the […] specific methyltransferase SET8 (also known as PR-SETT); the SET domain and mariner transposase fusion gene-containing protein SETMAR; the N-lysine methyltransferase SMYD2; the histone-lysine N-methyltransferase EZH1; the methyltransferase G9a that can methylate K9 and K27 of H1 and H3; the G9a-like methyltransferase GLP; and the H3K9 selective methyltransferases SUV39H1 and SUV39H2.

Work on Nc1ncnc2c1ncn2[C@@H]1O[C@H](CSCC[C@H](N)C(=O)O)[C@@H](O)[C@H]1O [SAH, S-(5′-Adenosyl)-L-homocysteine] yielded an IC50 of 5.05 µM.

Source: US20140161785A1, “Verticillin A Inhibition of Histone Methyltransferases” (priority 2012, published 2014)
